Our source for the CC50 values is patent US11877996B1 (priority 2023, dated 2024).

The test system of one data set is HEK293 cells. Briefly: MTT cytotoxicity assay, HEK293. The settings on record: read-out: LC50, HEK293, 72 h. A general note: Formazan colour is commonly taken as a measure of viable cells.
The subject of a further data set is HepG2 cells. Briefly: MTT cytotoxicity assay, HepG2. The settings on record: read-out: LC50, HepG2, 72 h.
In data set [1] the test system is macrophage-like cells differentiated from THP-1. Briefly: MTT cytotoxicity assay, macrophage differentiated from THP-1. The conditions noted are these: read-out: LC50, 72 h.
For a further data set, the system named is THP-1 cells. Briefly: MTT cytotoxicity assay, THP-1. The settings on record: read-out: LC50, THP-1, 72 h.
For a further data set, the system named is Caco-2 cells. Briefly: MTT cytotoxicity assay, Caco-2. The settings on record: read-out: LC50, Caco-2, 72 h.

In the case of Sodium (meta)arsenite, the CC50 in the data set on HEK293 cells was less than 25 µM; in the data set on HepG2 cells it was less than 25 µM; in data set [1] it was 100 µM; in the data set on THP-1 cells, less than 25 µM; in the data set on Caco-2 cells, less than 25 µM.
